## Measured affinities in a library of Ab-14 light chain variants

Values reported by Li et al. 2023, doi:10.1038/s41467-023-39022-2 (FLAb copy).

Target peptide (SARS-CoV-2 spike, HR2 region): PDVDLGDISGINAS

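Phage display of a naive human antibody library on the peptide gave the parent. The variants were designed computationally from a first round of random CDR variants and then made and measured. Group labels follow the data file (Ctrl: baseline library sampled from a position-specific scoring matrix, with some repeated check sequences; En: ensemble of fine-tuned language models; GP: Gaussian process model; GPLM: also part of the Gaussian process libraries; HC: hill climbing; Gen: genetic algorithm; Gibbs: Gibbs sampling; a sequence that several methods proposed may carry one label only). Affinity was read by AlphaSeq, a pooled yeast mating assay with surface-displayed partners. The frequency of each diploid, read from paired DNA barcodes, reflects how well the two displayed proteins bind. The ratio of observed to expected reads was calibrated, replicate by replicate, on BCL2-family standards whose Kd was known from biolayer interferometry. Each pool was mated in six replicate cultures.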

Parent scFv Ab-14: VH joined to VL by a (GGGGS)3 linker. Changes lie in the light chain CDRs alone.
VH: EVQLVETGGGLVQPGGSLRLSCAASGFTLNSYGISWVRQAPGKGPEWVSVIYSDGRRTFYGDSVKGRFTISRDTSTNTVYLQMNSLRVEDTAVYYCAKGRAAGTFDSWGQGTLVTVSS
VL: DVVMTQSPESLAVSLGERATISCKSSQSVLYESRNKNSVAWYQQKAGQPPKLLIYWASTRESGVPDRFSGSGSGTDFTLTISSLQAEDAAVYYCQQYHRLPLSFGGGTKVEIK

Each variant is given by its three light chain CDRs, as the data file delimits them; those of the parent are KSSQSVLYESRNKNSVA, WASTRES, QQYHRLPLS.
Scale: log10 of Kd in nM, estimated from mating counts; low values are strong binders.
Averages over replicates are reported, and they cover detected replicates only.
Where no diploid with the target was found in any replicate, the entry reads "no signal": below detection, most likely a poor binder, though not proof of it.

CDR-L1,CDR-L2,CDR-L3,group,mean log10 Kd (nM),seen in,empty controls
KLSQSELYESRCKNNVA,EASQRES,QQYHRLPLS,GP_Gibbs,0.61,6/6,2/18
KVSLSVLLWSRTANAVA,EASTRES,QQYHRLPLS,GP_Gibbs,1.13,6/6,0/18
MIYGAQRELGLMANSIA,DNVTRYN,QQYNRLPLS,En_Gen,2.96,3/6,1/18
MITAAMNAYGGNRSNVA,DKEISVN,QQYHHLPLS,En_Gibbs,1.38,6/6,1/18
KLSISYLFESQQKNSIA,ENSTRES,QHYHRLPLS,En_HC,2.67,2/6,1/18
KSSQSYLYESVNKNSVA,HASTRES,QQYHRLPLS,GP_HC,0.33,6/6,1/18
KLSQSELYESRNKNSVA,SASQRES,QQYHRLPLS,GP_Gen,-0.20,6/6,0/18
KQSQSVLYESRNKNSVA,DASTRMS,QQYHRLPLS,GP_HC,-0.02,6/6,0/18
MASDSTLYESPNKNSVA,WASTRER,QQYHRLPLS,Ctrl,1.70,6/6,1/18
KLEQSVLYQSRNKNSVA,NASTRES,QQYHRLPLS,GP_Gen,0.15,6/6,0/18
QLRDDIWADGMNKQSIA,ANEVSKD,QQYNRLPLS,En_Gibbs,0.60,1/6,0/18
HSSPSVEYESRNKNSVA,NASFRES,QQYHRLPLS,GP_HC,0.95,6/6,0/18
KMQQSWLYESRNKNSVA,NASTRES,QQYHRLPLS,GP_Gen,-0.37,6/6,1/18
KLSQSMPYESRNKNSVA,NASTRES,QQYHRLPLS,GP_Gen,-0.36,6/6,1/18
KSSLSVLYESTNKNSVA,WASTRES,QQYHRLPLS,Ctrl,1.68,6/6,2/18
MSSQEVLWESRNTASVA,WASTRES,QQYHRLPLS,Ctrl,2.20,1/6,1/18
KSSQSVLYESRNKNSVA,WATTRES,QQYHNLPLS,Ctrl,1.06,1/6,0/18
MISQLYQMGSFAINSVA,QASLRNE,QQYDRLPLM,En_Gen,1.42,6/6,0/18
KLQQSVLYESRNKNSVA,QASTRCS,QQYHRLPLS,GP_Gen,-0.09,6/6,1/18
TISNSFLMENQFKNSVA,QASTRES,QCYDRLPLS,En_HC,2.09,6/6,0/18
KSSQSVLFESRNKNSVA,EASTRES,QQYHRLPLS,GPLM_HC,0.98,6/6,0/18
KLHQSELYESRHANNVA,NASQRES,QQYHRLPLS,GP_Gibbs,0.07,6/6,0/18
MLSEMLHMLGTKKNSIA,DLVMRAN,QQYHRLPLS,En_Gen,1.96,6/6,0/18
MISQLMNMGSFAINSVA,QAQTRNE,QQYDRLPLT,En_Gen,no signal,0/6,0/18
KLQQSVLYESRNKNSVA,NGSTRES,QQYHRLPLS,GP_Gen,0.10,6/6,0/18
HSSPSVEYESRNKNSVA,NASERES,QQYHRLPLS,GP_HC,0.36,6/6,0/18
ILSQSVLMGSHLKNSVA,QASTRFN,QQYHRLPLS,En_HC,0.56,6/6,1/18
KIGGVTNGISFSKNNVA,EQSTRED,QQYDRLPLS,En_HC,0.74,6/6,0/18
KSSQSVLAESRNKNSVA,AASTRES,KQYPRLPLS,Ctrl,0.82,6/6,1/18
KSSQSVLYESRNKNSVA,WAITRMS,QQYHRLPLS,Ctrl,no signal,0/6,0/18
MISQLYNMGSFAINSVA,QASERSE,QQYDRLPLM,En_Gen,1.22,6/6,1/18
HISPLFMVESKLKNSVA,QTETRVE,QQYDRLPLS,En_HC,0.68,6/6,1/18
KLNLREEWGTGQWQNIA,EREIAWE,QQYQSLPLS,En_Gibbs,0.76,6/6,1/18
KISQSVLFESRNKNSVA,DASFRES,QQYHRLPLS,GP_HC,0.06,6/6,2/18
KQSQSVLGESRNKNSVA,DASTRSS,QQYHRLPLS,GP_HC,0.32,6/6,1/18
KLSQSVLYESRNSNSVA,NASTRES,QQYHRLPLM,GP_Gen,0.02,6/6,0/18
KLSQSVLMESRNKNSVA,EASTRES,QQYHRLPLS,GP_Gen,-0.28,6/6,1/18
KLSQSMLYEQRNKNSVA,NASLRES,QCYHRLPLS,GP_Gibbs,0.77,6/6,0/18
KLSQSVLYESRMKNSVA,EASTRES,QQYHRLPLS,GP_Gen,-0.07,6/6,0/18
KLWEDFYHGQVELSAIA,DGEHLNM,QQYSHLPLS,En_Gibbs,1.00,6/6,2/18
KIGATLNTLMHTKNNVA,DLVTRED,QQYHRLPLS,En_Gen,0.06,6/6,2/18
HIDDFNFSEGEKWNAIA,QDATRLQ,QSYQRLPLA,En_Gibbs,no signal,0/6,0/18
KSSQSVLYESRNKNSVN,WADTREY,QQYHRLPLS,Ctrl,1.41,4/6,1/18
KQSISVLQESRNQNSVA,EASTREV,QQYHRLPLS,GP_Gibbs,0.02,6/6,0/18
MLSELVMGLSRKHNSVA,DNTTRYS,QQYDRLPLS,En_Gen,2.39,3/6,1/18
KLQFSALQLQRNKNSVA,SASTRES,QQYHRLPLS,GP_Gibbs,0.01,6/6,2/18
KVSQSVLQESRNKNSVA,WASTRES,QQMHHLPLS,Ctrl,3.10,1/6,3/18
IFSQGVMVGWLTRNSVA,NSSTRES,QQYHRLPLS,En_HC,1.57,6/6,3/18
MVSQLMQWGLHRKNSIA,EAVTRFN,QQYDRLPLF,En_Gen,1.80,5/6,1/18
TLGDVTRMESNKKNSIA,DMNNRAD,QQYHRLPLS,En_HC,-0.42,6/6,0/18
NLSISMLHESINKHSVA,EVRTREK,QQYDRLPLS,En_HC,1.10,6/6,0/18
KLDQSQLYESRNKNSVA,SASTRES,QQYHRLPLS,GP_Gen,-0.05,6/6,0/18
HVTMELAMEKNSYRNIA,DASMRLA,QQYVRLPLG,En_Gibbs,0.17,6/6,1/18
HLSPVVLYESRNKNSVA,NASTRES,QQYHRLPLS,GP_HC,-0.28,6/6,0/18
IAYGGDMLESVTRNSVA,NAETRAD,QDYHRLPLS,En_HC,0.87,6/6,1/18
KVSQSHLYESRNKNSVA,NASTREV,QQYHRLPLS,GP_Gen,0.70,6/6,0/18
NLTTGYRQGALNTDSVA,HGNMRCA,QMYYRLPLS,En_Gibbs,0.51,6/6,1/18
KVSEFMKGLSMRKDSIA,DNTTRNS,QQYDRLPLS,En_Gen,1.63,3/6,2/18
HLSQSQLYESRNKNSVA,NASTRES,QQYHRLPLS,GP_Gen,0.39,6/6,0/18
KSSQSVLYESDNKNSVA,AASTRES,QQYHRHPLS,Ctrl,1.93,1/6,1/18

The authors averaged sequences with at least three values out of six and counted those with two or fewer as poor binders.
Values of this round are not directly comparable with the first-round values of the same sequences.
Empty control strains, which show no peptide, gave a signal in 4% of pairings with all light chain designs; the median was 2.64 and 95% of these signals were weaker than 1.59. No background was subtracted. Also given: how often the same scFv was detected with the empty control strains.